Test results from ChEMBL document CHEMBL1201862, “PubChem BioAssay data set” (2004).
Active and inactive are the calls of the source. Unless noted, the rule behind the calls is not given here.

Sequences of proteins named here, by UniProt entry; tags and fusion partners are left off.
UniProt P35372, whole entry: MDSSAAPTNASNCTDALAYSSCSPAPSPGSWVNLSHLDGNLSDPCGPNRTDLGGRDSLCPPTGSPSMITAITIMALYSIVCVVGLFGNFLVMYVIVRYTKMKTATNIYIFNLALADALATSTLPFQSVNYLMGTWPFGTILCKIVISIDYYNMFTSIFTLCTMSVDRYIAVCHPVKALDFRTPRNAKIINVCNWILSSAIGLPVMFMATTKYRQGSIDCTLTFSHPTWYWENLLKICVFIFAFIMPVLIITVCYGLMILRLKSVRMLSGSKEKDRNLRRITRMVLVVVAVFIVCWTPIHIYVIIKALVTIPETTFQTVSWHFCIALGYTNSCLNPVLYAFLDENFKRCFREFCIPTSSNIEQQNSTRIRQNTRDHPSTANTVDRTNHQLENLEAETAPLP
UniProt P10635, whole entry: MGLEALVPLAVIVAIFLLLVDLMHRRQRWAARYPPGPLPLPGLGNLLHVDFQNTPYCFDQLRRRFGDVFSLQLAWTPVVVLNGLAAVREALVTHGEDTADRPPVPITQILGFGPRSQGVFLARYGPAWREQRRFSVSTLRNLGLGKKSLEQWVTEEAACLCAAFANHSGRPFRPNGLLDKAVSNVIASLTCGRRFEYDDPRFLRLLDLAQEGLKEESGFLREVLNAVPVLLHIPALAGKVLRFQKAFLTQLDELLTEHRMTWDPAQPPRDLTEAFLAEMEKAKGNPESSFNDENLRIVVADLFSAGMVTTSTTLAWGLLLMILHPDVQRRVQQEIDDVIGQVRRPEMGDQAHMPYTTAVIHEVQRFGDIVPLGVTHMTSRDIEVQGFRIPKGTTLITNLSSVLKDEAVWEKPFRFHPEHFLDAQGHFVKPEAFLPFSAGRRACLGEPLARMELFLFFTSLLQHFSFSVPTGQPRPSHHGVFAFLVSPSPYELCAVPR
UniProt P98170, whole entry: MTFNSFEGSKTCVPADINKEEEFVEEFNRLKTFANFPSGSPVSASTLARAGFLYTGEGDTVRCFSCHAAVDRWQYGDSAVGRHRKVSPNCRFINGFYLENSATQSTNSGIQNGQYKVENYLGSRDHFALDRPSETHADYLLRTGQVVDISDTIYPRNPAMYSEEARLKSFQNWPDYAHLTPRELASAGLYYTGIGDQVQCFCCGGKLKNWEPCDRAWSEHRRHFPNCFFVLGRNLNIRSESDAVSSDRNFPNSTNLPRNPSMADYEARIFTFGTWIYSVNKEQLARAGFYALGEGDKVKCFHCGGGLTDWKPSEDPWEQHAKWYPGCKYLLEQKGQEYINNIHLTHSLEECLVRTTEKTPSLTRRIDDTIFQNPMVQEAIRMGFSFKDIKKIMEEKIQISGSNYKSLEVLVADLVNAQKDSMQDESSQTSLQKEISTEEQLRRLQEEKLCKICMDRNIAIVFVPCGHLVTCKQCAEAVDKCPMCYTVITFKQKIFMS

Experiments:
Mu-type opioid receptor = Mu-type opioid receptor (Homo sapiens, UniProt P35372); assay type: functional, cell-based;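 also: U2OS cells with beta-arrestin recruitment to OPRM1 by beta-gal complementation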
Cytochrome P450 2D6 = Cytochrome P450 2D6 (Homo sapiens, UniProt P10635);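 also: CYP2D6 member of a cytochrome P450 panel assay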
[1] = target: T1, E3 ubiquitin-protein ligase XIAP (Homo sapiens, UniProt P98170); test: SAR analysis of Antagonists of IAP-family anti-apoptotic proteins. [Related pubchem assays (depositor defined):AID1018, AID1449, AID1513, AID1514, AID1638]
[2] = target: T1, E3 ubiquitin-protein ligase XIAP; test: SAR analysis of Antagonists of XIAP-Bir3 domain of IAP-family anti-apoptotic proteins. [Related pubchem assays (depositor defined):AID1018, AID1449, AID1513, AID1514, AID1638]

## CN1C[C@H](C(=O)NC2(C)OC3(O)[C@@H]4CCCN4C(=O)[C@H](Cc4ccccc4)N3C2=O)CC2c3cccc4[nH]cc(c34)C[C@H]21 (some centres undefined)
Mu-type opioid receptor
  EC50: inactive: 92.5 µM

## COc1cc(N[C@@H](C)CCCN)c2ncccc2c1
Cytochrome P450 2D6
  AC50: inconclusive: 7.94 µM

## CC(C)[C@H](NC(=O)[C@H](C)N)C(=O)N1CCC[C@H]1C(=O)NC(c1ccccc1)c1ccccc1
[1]
  IC50: active: 3.1 µM
[2]
  IC50: active: 0.79 µM
